Measured values from PubChem BioAssay AID1766 (National Center for Advancing Translational Sciences (NCATS), 2009).
This is a selection; strong and weak results do not stand in their true shares. Records with an inconclusive call do not appear. Some structures show a salt or complex split into parts, the way the source records it. The source made the active and inactive calls. The call rests on the fitted dose curve; in most records, active means well fitted curve in the direction sought with a large enough effect in the polarisation (not every such curve was filed as active); inconclusive means small, poorly fitted or top-dose-only effect, or effect the other way, or a change in a side signal; inactive means no such curve, though single readings can be large or run the other way; the % refers to the polarisation.

Test: qHTS Assay for Inhibitors Targeting the Menin-MLL Interaction in MLL Related Leukemias: Competition With Fluorescein Labeled MLL-derived Peptide; further: % of control where 0% means no effect
Settings: Fluorescence polarization, fluorescein-MLL peptide displacement from menin; at 61.4 µM (top of the series)
For `Fc1ccccc1NC1CCN(Cc2ccccc2)CC1`, the FP activity change was inactive: -0.877%.
In the case of `CCN1CCC(Nc2cccc(F)c2)CC1`, the FP activity change is reported as inactive: 2.51%.
In the case of `CN(C)c1ccc(C(=O)NCC2(N3CCCCC3)CCCCC2)cc1`, the FP activity change is reported as inactive: -2.6%.
For `CCOc1ncccc1C(=O)NCC1(N2CCOCC2)CCCCC1`, the FP activity change was inactive: 2.23%.
In the case of `CN1CCC(Nc2ccc(F)c(Cl)c2)CC1`, the FP activity change is reported as inactive: -3.06%.
In the case of `CC(C)(C)OC(=O)N1CCC(Nc2ccccc2)CC1`, the FP activity change is reported as inactive: 1.8%.
In the case of `O=C(O)C1(Nc2ccccc2)CCN(Cc2ccccc2)CC1`, the FP activity change is reported as inactive: -4.04%.
For `CCCOc1ccc(C(=O)NCC2(N(C)C)CCCCC2)cc1`, the FP activity change was inactive: 2.47%.
For `COc1cccc(C(=O)N(c2cc(C)cc(C)c2)C2CCN(C(=O)OC(C)(C)C)CC2)c1`, the FP activity change was inactive: -6.42%.
With `COc1cc(OC)cc(C(=O)NCC2(N3CCOCC3)CCCCC2)c1` the FP activity change was inactive: 6.76%.
With `CCC(CO)(C(=O)OC1CN2CCC1CC2)c1ccccc1` (stereo not drawn) the FP activity change was inactive: 2.22%.
For `CN1CCC(Nc2ccc(Cl)cc2)CC1`, the FP activity change was inactive: -2.66%.
For `CCCOc1ccc(C)cc1CN(CCCl)CCCl`, the FP activity change was inactive: 9.75%.
In the case of `COc1ccc(C(=O)NCC2(N3CCOCC3)CCCCC2)cc1OC`, the FP activity change is reported as inactive: 3.28%.
With `CCOC(=O)N1CCC(Nc2ccc(C)cc2)CC1` the FP activity change was inactive: -1.65%.
With `N/C(=N\O)c1c(N)no[n+]1[O-]` the FP activity change was inactive: 1.67%.
For `O=C(OC1CN2CCC1CC2)C1c2ccccc2C=Cc2ccccc21` (stereo not drawn), the FP activity change was inactive: 2.95%.
In the case of `O=C(O)c1cccc(Nc2c([N+](=O)[O-])cc([N+](=O)[O-])cc2[N+](=O)[O-])c1`, the FP activity change is reported as inactive: -1.58%.
For `N#Cc1ccc(C(=O)NCC2(N3CCCCC3)CCCCC2)cc1`, the FP activity change was inactive: -2.04%.
With `CC(C)(C)OC(=O)N1CCC(N(C(=O)c2ccccc2)c2ccc(Cl)cc2)CC1` the FP activity change was inactive: 5.13%.
In the case of `CCOC(=O)C(CC)C1=NC(C)(C)Cc2ccccc21.O=[N+]([O-])c1cc([N+](=O)[O-])c(O)c([N+](=O)[O-])c1` (stereo not drawn), the FP activity change is reported as inactive: 1.14%.
With `CN(C)C1(CNC(=O)c2cccc(C#N)c2)CCCCC1` the FP activity change was inactive: 0.977%.
With `c1ccc(CN2CCC(Nc3ccccc3)CC2)cc1` the FP activity change was inactive: -0.276%.
With `CCCN1CCC(Nc2cc(OC)cc(OC)c2)CC1` the FP activity change was inactive: -10.3%.
With `O=C(NCC1(N2CCCCC2)CCCCC1)c1ccc(OC(F)F)cc1` the FP activity change was inactive: -5.96%.
In the case of `CCN1CCC(Nc2ccc(Cl)cc2)CC1`, the FP activity change is reported as inactive: 2.25%.
In the case of `N#CC1(Nc2ccccc2)CCN(CCc2ccccc2)CC1`, the FP activity change is reported as inactive: -0.481%.
In the case of `O=C(NCC1(N2CCCCC2)CCCCC1)c1cccc([N+](=O)[O-])c1`, the FP activity change is reported as inactive: 2.34%.
In the case of `O=[N+]([O-])c1cc([N+](=O)[O-])c(NCC2CCS(=O)(=O)C2)c([N+](=O)[O-])c1` (stereo not drawn), the FP activity change is reported as inactive: -1.54%.
In the case of `O=C(NCC1(N2CCCCC2)CCCCC1)c1cccc(C(F)(F)F)c1`, the FP activity change is reported as inactive: -0.252%.
For `O=C(NCC1(N2CCOCC2)CCCCC1)c1cc(=O)[nH]c2ccccc12`, the FP activity change was inactive: -2.01%.
In the case of `COc1cc(C(=O)NCC2(N3CCCCC3)CCCCC2)ccc1OC(F)F`, the FP activity change is reported as inactive: 3.05%.
With `COc1ccc(NC2CCN(C(=O)OC(C)(C)C)CC2)cc1` the FP activity change was inactive: 0.537%.
With `CN1CCN(CCOC(=O)C(O)(c2ccccc2)c2ccccc2)CC1` the FP activity change was inactive: 5.98%.
For `CC(C)c1ccc(NC2CCN(C(=O)OC(C)(C)C)CC2)cc1`, the FP activity change was inactive: -2.13%.
For `COc1ccc(CN(CCCl)CCCl)cc1Cl`, the FP activity change was inactive: -1.26%.
With `CN(C)c1cccc(C(=O)NCC2(N3CCCCC3)CCCCC2)c1` the FP activity change was inactive: -0.727%.
With `O=[N+]([O-])c1cc([N+](=O)[O-])c(OC2CCCCC2O)c([N+](=O)[O-])c1` (stereo not drawn) the FP activity change was inactive: -3.1%.
For `COc1cc(OC)c(C(=O)NCC2(N(C)C)CCCCC2)cc1OC`, the FP activity change was inactive: -2.78%.
In the case of `O=C(OC1CN2CCC1CC2)c1ccc([N+](=O)[O-])cc1` (stereo not drawn), the FP activity change is reported as inactive: 0.612%.
With `COc1ccc2c(c1O)-c1c(O)c(OC)cc3c1[C@H](C2)[N+](C)(C)CC3.O=[N+]([O-])c1cc([N+](=O)[O-])c([O-])c([N+](=O)[O-])c1[O-]` the FP activity change was inactive: -11.9%.
For `CCCOc1ccc(C(=O)NCC2(N(C)C)CCCCC2)cc1OC`, the FP activity change was inactive: -17.2%.
With `COc1ccc(C(=O)NCC2(N3CCCCC3)CCCCC2)cc1` the FP activity change was inactive: 7.36%.
With `CC(C)(C)OC(=O)N1CCC(N(C(=O)c2ccccc2)c2ccc(F)cc2)CC1` the FP activity change was inactive: -2.87%.
In the case of `COc1ccc(C(=O)NCC2(N3CCCCC3)CCCCC2)c(OC)c1OC`, the FP activity change is reported as inactive: 9.89%.
In the case of `O=C(NCC1(N2CCCCC2)CCCCC1)c1ccc(=O)[nH]c1`, the FP activity change is reported as inactive: 4.94%.
In the case of `Cc1cc(C)cc(N(C(=O)c2ccccc2)C2CCN(C(=O)OC(C)(C)C)CC2)c1`, the FP activity change is reported as inactive: -2.18%.
For `O=C(NCC1(N2CCOCC2)CCCCC1)c1cc2ccccc2o1`, the FP activity change was inactive: 1.52%.
In the case of `N#CC1(Nc2ccccc2)CCN(Cc2ccccc2)CC1`, the FP activity change is reported as inactive: 0.811%.
With `O=C(OC1CN2CCC1CC2)C1c2ccccc2Oc2ccccc21` (stereo not drawn) the FP activity change was inactive: -0.276%.
With `CCOC(=O)N1CCC(Nc2ccc(OC)cc2)CC1` the FP activity change was inactive: -8.12%.
With `CCOc1ccc(C)cc1CN(CCCl)CCCl` the FP activity change was inactive: 1.36%.
With `O=C(NCC1(N2CCCCC2)CCCCC1)c1ccc(F)cc1` the FP activity change was inactive: -5.81%.
With `CCOC(=O)N1CCC(Nc2ccc(F)cc2)CC1` the FP activity change was inactive: 1.8%.
With `COc1ccc(NC2CCN(CCc3ccccc3)CC2)c(OC)c1` the FP activity change was inactive: -1.35%.
For `CCOC(=O)N1CCC(Nc2cccc(C)c2)CC1`, the FP activity change was inactive: -2.59%.
In the case of `COc1cc(C(=O)NCC2(N(C)C)CCCCC2)ccc1OC(F)F`, the FP activity change is reported as inactive: 0.631%.
In the case of `Cc1ccc(OCC(C)C)c(CN(CCCl)CCCl)c1`, the FP activity change is reported as inactive: 11.8%.
